For orientation: Papp means a coefficient for how fast a substance crosses the barrier. Low readings indicate poor permeation, high ones ready permeation.

Chains of the proteins cited; added tags and fusions are not shown.
UniProt P08684, whole entry: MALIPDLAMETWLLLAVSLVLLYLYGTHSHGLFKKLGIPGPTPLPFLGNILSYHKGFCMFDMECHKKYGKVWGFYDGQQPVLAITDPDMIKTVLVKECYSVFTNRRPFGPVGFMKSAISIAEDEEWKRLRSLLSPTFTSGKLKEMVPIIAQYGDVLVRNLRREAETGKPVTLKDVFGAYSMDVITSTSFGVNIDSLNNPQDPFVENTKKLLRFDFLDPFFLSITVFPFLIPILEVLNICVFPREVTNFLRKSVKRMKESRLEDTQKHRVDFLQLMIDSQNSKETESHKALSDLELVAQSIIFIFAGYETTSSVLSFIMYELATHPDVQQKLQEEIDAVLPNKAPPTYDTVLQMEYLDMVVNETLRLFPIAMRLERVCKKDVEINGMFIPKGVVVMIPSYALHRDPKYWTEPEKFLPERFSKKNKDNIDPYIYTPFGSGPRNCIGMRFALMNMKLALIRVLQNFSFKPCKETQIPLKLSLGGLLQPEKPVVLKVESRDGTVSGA

The text below walks through data of PMC7007424 (Neurotherapeutics, 2019).

One data set has as its target CYP3A4 (Homo sapiens, UniProt P08684). Particulars: 10 μM.
The nature of the next data set: in vitro. The following applies: PAMPA. On the technique in general: In PAMPA a lipid-coated filter parts donor from acceptor wells.

Marks after values point to notes of the source that are not given here.

In the case of `CC(C(=O)NCc1ccccc1)N1C(=O)CCC1=O` (centres unmarked) [AS-1], the CYP3A4 activity at CYP3A4 is listed as 96.9 ± 0.4^a Percentage of control.

In the case of `CCn1cc(C(=O)O)c(=O)c2cc(F)c(N3CCNCC3)cc21` [NFX, norfloxacin, reference compound], in the data set “in vitro”, the Papp is 0.56 ± 0.01 ×10⁻⁶ cm/s.
